From PubChem BioAssay AID559 (PCMD, 2006)
This is a selection; strong and weak results do not stand in their true shares. Some of these compounds have results that are not shown, active ones among them. The source made the active and inactive calls. No stated cut-off is given here; in the data, active means inhibition above about 20%; inactive means the rest.

Chains of the proteins cited; added tags and fusions are not shown.
UniProt P0A8V2, whole entry: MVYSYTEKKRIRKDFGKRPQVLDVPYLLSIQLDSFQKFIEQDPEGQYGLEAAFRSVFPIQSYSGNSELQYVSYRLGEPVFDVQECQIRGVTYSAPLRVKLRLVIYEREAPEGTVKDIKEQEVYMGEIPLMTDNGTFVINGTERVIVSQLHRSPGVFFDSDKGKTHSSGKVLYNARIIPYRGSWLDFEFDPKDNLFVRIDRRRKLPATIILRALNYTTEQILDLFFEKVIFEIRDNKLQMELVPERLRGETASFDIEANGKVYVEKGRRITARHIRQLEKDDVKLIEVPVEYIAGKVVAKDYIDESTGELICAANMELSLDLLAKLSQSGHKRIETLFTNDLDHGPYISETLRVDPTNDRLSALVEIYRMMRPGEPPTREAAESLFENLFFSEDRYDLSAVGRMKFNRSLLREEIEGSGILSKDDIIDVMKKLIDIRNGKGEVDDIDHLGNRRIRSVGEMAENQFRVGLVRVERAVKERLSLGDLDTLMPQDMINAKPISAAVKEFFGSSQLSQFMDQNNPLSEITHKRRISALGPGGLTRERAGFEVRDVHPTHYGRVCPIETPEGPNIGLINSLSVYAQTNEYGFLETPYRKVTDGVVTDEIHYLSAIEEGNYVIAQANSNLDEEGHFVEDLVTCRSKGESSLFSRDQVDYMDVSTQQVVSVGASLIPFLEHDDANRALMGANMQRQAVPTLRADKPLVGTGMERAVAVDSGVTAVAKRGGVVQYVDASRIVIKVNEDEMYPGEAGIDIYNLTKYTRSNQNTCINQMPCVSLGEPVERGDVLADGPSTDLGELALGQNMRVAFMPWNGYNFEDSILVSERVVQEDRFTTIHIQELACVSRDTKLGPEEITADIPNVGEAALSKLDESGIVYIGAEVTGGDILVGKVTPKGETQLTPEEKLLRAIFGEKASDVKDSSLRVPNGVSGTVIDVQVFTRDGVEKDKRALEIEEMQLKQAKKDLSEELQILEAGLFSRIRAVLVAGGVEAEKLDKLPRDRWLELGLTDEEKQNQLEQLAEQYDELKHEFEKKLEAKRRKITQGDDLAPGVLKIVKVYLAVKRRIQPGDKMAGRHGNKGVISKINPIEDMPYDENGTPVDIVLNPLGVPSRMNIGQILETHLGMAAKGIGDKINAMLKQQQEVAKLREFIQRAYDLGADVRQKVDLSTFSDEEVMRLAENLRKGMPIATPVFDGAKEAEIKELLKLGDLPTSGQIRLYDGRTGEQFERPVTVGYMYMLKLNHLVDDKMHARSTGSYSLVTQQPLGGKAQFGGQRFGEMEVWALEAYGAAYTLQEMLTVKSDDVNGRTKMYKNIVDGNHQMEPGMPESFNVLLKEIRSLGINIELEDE

target: DNA-directed RNA polymerase subunit beta (Escherichia coli (strain K12)) (UniProt P0A8V2); experiment: bacterial RNA polymerase transcription inhibition – biochemical (AID 559);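 further: 0% = enzyme without compound and 100% = no enzyme blank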; details: E. coli RNA polymerase, fluorescence transcription assay; active compounds read high;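 tested at 10 µM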

Question: With `O=C(OC1CN2CCC1CC2)C(CO)(c1ccccc1)c1ccccc1` (configuration not stated) as the compound, how does the inhibition read?
Answer: inactive: 10.4%

Question: For `CN(C)c1cccc(C(=O)NCC2(N(C)C)CCCCC2)c1`, which inhibition is on record?
Answer: inactive: 7.59%
